These results are taken from PubChem BioAssay AID504634 (The Scripps Research Institute Molecular Screening Center, 2011).

By UniProt entry, the sequences of proteins in these tests, tags left out.
UniProt P47898, whole entry, looked up: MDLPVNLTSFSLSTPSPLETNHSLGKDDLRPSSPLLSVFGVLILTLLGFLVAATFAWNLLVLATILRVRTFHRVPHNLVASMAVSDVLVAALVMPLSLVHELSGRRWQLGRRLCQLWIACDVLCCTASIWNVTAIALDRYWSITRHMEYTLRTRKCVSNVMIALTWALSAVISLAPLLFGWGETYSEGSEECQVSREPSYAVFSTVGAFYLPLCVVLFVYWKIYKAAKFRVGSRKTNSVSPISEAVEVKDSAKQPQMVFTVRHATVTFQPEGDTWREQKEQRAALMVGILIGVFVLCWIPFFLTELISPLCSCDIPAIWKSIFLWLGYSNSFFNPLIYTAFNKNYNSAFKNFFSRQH

Each structure is given as a SMILES string. Only a part is listed here, and it is no random draw. The source made the active and inactive calls. No stated cut-off is given here; in the data, active means inhibition mostly above about 23% (no sharp cut-off); inactive means mostly below about 18%.

The target of the test is 5-hydroxytryptamine receptor 5A (Homo sapiens) (UniProt P47898). In words: HTR5A inverse agonists in luminescence cell assay, primary screen, counter-screen for OPRM1-OPRD1 heterodimer inverse agonist project, full-deck HTS (AID 504634).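 Further: 0% = cells with DMSO and 100% = no-cell wells with DMSO.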 Conditions: HTR5A cell line, inverse agonism, at 9.3 µM, stronger effect = higher value. On the technique in general: Counterscreens check selectivity or assay interference.
In general, inhibition refers to the drop in the measured response relative to a control, in per cent. In the case of `O=C(Cn1cnc2c(NCc3ccccc3)ncnc21)N1CCN(c2ccccn2)CC1`, the inhibition is inactive: 5.05%.

`O=C(Nc1nc2ccccc2n1CCN1CCCCC1)c1ccco1`: the inhibition was inactive: -6.01%.

On to `O=C(Cn1c(-c2cscn2)nc2ccccc21)Nc1ccccc1F`, for which the inhibition was inactive: -7.75%.

Take `CCC(=O)Nc1cccc(C(=O)/C=C/c2cc(Br)ccc2OC)c1`: the inhibition was inactive: -23.1%.

As for `O=S(=O)(c1ccccc1)c1nnn2c1nc(NC1CCN(Cc3ccccc3)CC1)c1ccccc12`, the inhibition is inactive: -8.27%.

Turning to `CCCS(=O)(=O)N1CCn2c(nc3ccccc32)C1`, the inhibition is inactive: -2.62%.

For the molecule `CC(=O)NC(C)c1nc2ccccc2n1CC(=O)N1C(C)CCCC1C` (centres undefined), the inhibition was inactive: -9.73%.

Turning to `Cc1ccc(CN2C(=O)c3ccccc3NC23CCN(Cc2ccccc2)CC3)cc1`, the inhibition is inactive: 11.7%.

Turning to `CC(C)NC(=O)Cn1c(SCC(=O)N2c3ccccc3CC2C)nc2ccccc21` (centres undefined), the inhibition is inactive: -2.33%.

For the molecule `O=P1(N(CCCl)CCCl)OCCC2CCCCN21` (centres undefined), the inhibition was inactive: 8.39%.

With `O=C(c1ccc(Cl)cc1)N1CCn2c1nc1ccccc12`, the inhibition was inactive: -3.63%.

Take `O=C(Cn1cnc2c(NCc3ccccc3)ncnc21)NCc1ccc2[nH]ccc2c1`: the inhibition was inactive: -1.78%.

`CCOC(=O)CSc1nc2ccccc2n1CC(=O)N(C(C)C)C(C)C`: the inhibition was inactive: 15%.

As for `O=S(=O)(c1ccccc1)N1CCn2c(nc3ccccc32)C1`, the inhibition was inactive: -3.84%.

For `Cn1c(=O)c2c(ncn2CC(=O)N2CCN(C(=O)c3ccco3)CC2)n(C)c1=O`, the inhibition is inactive: -0.32%.

In the case of `O=C1NCN(c2ccccc2)C12CCNCC2`, the inhibition was inactive: 3.84%.

Consider `COc1ccc(NS(=O)(=O)c2cc(NC(=O)Cn3cnc4c3c(=O)n(C)c(=O)n4C)ccc2C)cc1`, for which the inhibition was inactive: -6.35%.

`Cn1c(=O)c2c(ncn2CCNC2=NCCCCC2)n(C)c1=O`: the inhibition is inactive: 12.3%.

In the case of `Cc1nc2cc(C(F)(F)F)ccc2n1CCNc1nc(-c2cc(Cl)c(N)c(Cl)c2)cs1`, the inhibition is inactive: 3.41%.

For the molecule `CC(C)(C)C(=O)N1CCn2c1nc1ccccc12`, the inhibition was inactive: 7.97%.

`Cc1ccc(Cn2c(=O)c3c(nc4n3CCN4Cc3ccco3)n(C)c2=O)cc1`: the inhibition is inactive: 1.5%.

In the case of `CCOC(=O)C1CCCN(C(=O)Cn2cnc3c2c(=O)n(C)c(=O)n3C)C1` (centres undefined), the inhibition is inactive: -18%.

On to `Cn1c(=O)c2ncn(CC(=O)Nc3ccc(N4CCOCC4)cc3)c2n(C)c1=O`, for which the inhibition was inactive: -29.4%.

Take `O=C(C1CCCN1S(=O)(=O)c1cccc2cccnc12)N1CCn2c1nc1ccccc12` (centres undefined): the inhibition was inactive: -13.4%.

With `O=C(Cn1c(-c2ccco2)nc2ccccc21)N1CCCCC1`, the inhibition was inactive: 0.91%.

On to `S=C(Nc1ccccc1)N1CCn2c1nc1ccccc12`, for which the inhibition is inactive: -7.91%.

Consider `c1ccc(CN2CCN(CCN3CCn4c3nc3ccccc34)CC2)cc1`, for which the inhibition was inactive: 0.18%.

On to `Cc1nc2ccccc2n1C1CC(=O)N(Cc2ccccc2)C1=O` (centres undefined), for which the inhibition is inactive: -11.8%.

Consider `CC(c1ccccc1)N1CCn2c(nc3cc(NS(C)(=O)=O)ccc32)C1` (centres undefined), for which the inhibition is inactive: -16.9%.

Regarding `COc1cc(/C=N/NC(=O)Cn2cnc3c2c(=O)n(C)c(=O)n3C)ccc1O`, the inhibition was inactive: 4.77%.

As to `CCSc1nc2ccccc2n1CC(=O)N1CCOCC1`, the inhibition is inactive: -6.23%.

`O=C(NC1CCS(=O)(=O)C1)NP(=S)(Oc1ccccc1)Oc1ccccc1` (centres undefined): the inhibition is inactive: -1.82%.

Turning to `COc1cccc(NC(=O)[C@H](C)NC(=O)N2CCn3c2nc2ccccc23)c1`, the inhibition was inactive: -1.04%.

For `CCNC(=S)/N=C(\N)N[N+](=O)[O-]`, the inhibition was inactive: -12.3%.

For `Cc1ccc(OCCNC(=O)Cn2cnc3c(=O)n(C)c(=O)n(C)c32)cc1C`, the inhibition is inactive: 5.71%.

On to `CN(C)C(=O)Oc1noc2ccccc12`, for which the inhibition is inactive: -7.32%.

Consider `O=c1c2cc([N+](=O)[O-])ccc2[nH]c2c([N+](=O)[O-])cc([N+](=O)[O-])cc12`, for which the inhibition is inactive: -2.13%.

On to `CN(C)CCn1cnc2ccccc21`, for which the inhibition was inactive: 0.48%.

As to `Cc1ccc(CNC(=O)Cn2cnc3c(NC(=O)OCc4ccccc4)ncnc32)o1`, the inhibition is inactive: -30.2%.

Regarding `CCOC(=O)C1=C(Cn2cnc3ccccc32)NC(=O)NC1c1ccc(Cl)cc1` (centres undefined), the inhibition was inactive: 9.95%.

For the molecule `Cc1ccccc1OP(=O)(Nc1ccccn1)Oc1ccccc1C`, the inhibition was inactive: -4.68%.

As for `CCc1cccc(C)c1N(C(=O)Cn1c(CO)nc2ccccc21)C(C)COC` (centres undefined), the inhibition was inactive: 12.5%.

On to `CC(NC(=O)COC(=O)C(O)(c1ccccc1)c1ccccc1)c1ccccc1` (centres undefined), for which the inhibition is inactive: 22.6%.

As to `CC1CCCN(C(=O)Cn2cnc3c2c(=O)n(C)c(=O)n3C)C1` (centres undefined), the inhibition was inactive: 8.93%.

`Cn1c(=O)c2c(ncn2CC(=O)N2CCN(c3ccccc3)CC2)n(C)c1=O`: the inhibition is inactive: -22.8%.

Regarding `C[C@H](O)[C@@H]1C(=O)N2CCc3ccc(-c4cccc(F)c4)cc3[C@@H]2C[C@@H]1N(C)C(=O)Nc1ccccc1`, the inhibition is inactive: -1.36%.

On to `COCCN1CCn2c(nc3cc(Nc4nnc(C)c5ccccc45)ccc32)C1`, for which the inhibition was inactive: -9.37%.

With `COCCNC(=O)Cn1c(=O)n(C)c2ccccc21`, the inhibition is inactive: 3.05%.

As to `Clc1ccc(N2CCN(Cc3c[nH]c4ncccc34)CC2)cc1`, the inhibition was inactive: -1.37%.

With `Cc1ccc2c(c1)C1CN(C)CCC1N2C(=S)NC(=O)c1ccc(Cl)cc1Cl` (centres undefined), the inhibition is inactive: -2.76%.

Regarding `O=C(Cn1c(=O)n(CC(=O)NCc2ccccc2)c2ccccc21)NCc1ccccc1`, the inhibition was inactive: 2.08%.

On to `CC(/C=N\NC(=O)Cn1c(C)nc2ccccc21)=C\c1ccccc1`, for which the inhibition was inactive: -6.65%.

For the molecule `CCCC(=O)Nc1ccc2c(c1)nc1n2CCN(CCOC)C1`, the inhibition was inactive: 6.25%.

Regarding `Cc1ccc(C)c(Cn2c(=O)c3c(nc4n3CCN4Cc3ccco3)n(C)c2=O)c1`, the inhibition is inactive: -1.23%.

Take `CCC(=O)N1C2C3N(C(=O)CC)C1C1N(C(=O)CC)C(C(N1C(=O)CC)N3C(=O)CC)N2C(=O)CC`: the inhibition was inactive: -9.38%.

As for `O=C(OC1CN2CCC1CC2)c1ccccc1` (centres undefined), the inhibition is inactive: -16.1%.

In the case of `CC(O)CNc1nc2ccccc2n1CC(=O)NC12CC3CC(CC(C3)C1)C2` (centres undefined), the inhibition was inactive: -5.21%.

In the case of `CC1CN(CCn2cnc3c(N)ncnc32)CC(C)O1` (centres undefined), the inhibition is inactive: -1.15%.

For the molecule `O=C(CCCCCNC(=O)N1CCn2c1nc1ccccc12)NCc1ccc(F)cc1`, the inhibition is inactive: -17.1%.
